Where two headings read alike, the source gives them in different places.
Experiments:
[1] = target: human RORγt LBD fused to the DNA binding domain of the GAL4 protein (Homo sapiens (Human), UniProt P51449); test: RORγt (LBD) reporter assay in HEK293T cells; format: cell-based
[2] = target: human RORγt ligand binding domain (RORγt LBD) (Homo sapiens (Human), UniProt P51449); test: RORγt ThermoFluor assay (thermal shift, binding affinity Kd)
[3] = HEK293T cells, read-out: RORγt (LBD) Reporter Assay, IC50
[4] = read-out: ThermoFluor Assay, Kd

Amino acid sequences for entries named in this document (tags omitted). Chains listed by the source or under a name are the forms on record and can include a tag or linker. Residues count along the entry.
UniProt P51449, 258-518: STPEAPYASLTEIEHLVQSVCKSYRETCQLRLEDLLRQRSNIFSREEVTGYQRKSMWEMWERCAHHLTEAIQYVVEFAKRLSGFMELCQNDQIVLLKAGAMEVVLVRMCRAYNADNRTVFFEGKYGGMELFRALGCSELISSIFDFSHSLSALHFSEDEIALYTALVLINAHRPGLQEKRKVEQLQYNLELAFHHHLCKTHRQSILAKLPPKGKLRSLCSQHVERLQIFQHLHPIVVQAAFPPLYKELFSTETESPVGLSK
UniProt P51449, other isoform, or with tags, fused parts or gaps: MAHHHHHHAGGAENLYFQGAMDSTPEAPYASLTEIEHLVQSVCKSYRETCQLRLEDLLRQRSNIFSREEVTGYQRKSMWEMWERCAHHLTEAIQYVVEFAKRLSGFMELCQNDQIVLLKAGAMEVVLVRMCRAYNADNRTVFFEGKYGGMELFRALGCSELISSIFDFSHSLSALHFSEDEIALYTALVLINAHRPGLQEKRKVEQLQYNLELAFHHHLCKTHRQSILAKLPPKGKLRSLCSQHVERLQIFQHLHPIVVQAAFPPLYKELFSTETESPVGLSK

COc1nc2ccc(C(O)(c3cncn3C)C3CCN(C(C)=O)CC3)cc2c(Cl)c1CC1CCOCC1 (single isomer, unassigned) [Example 5c, 1-(4-((4-Chloro-2-methoxy-3-((tetrahydro-2H-pyran-4-yl)methyl)quinolin-6-yl)(hydroxy)(1-methyl-1H-imidazol-5-yl)methyl)piperidin-1-yl)ethanone]
IC50 [1, 3]: > 6000 nM

COc1nc2ccc(C(O)(c3ccc(C)nc3C)c3cnnn3C)cc2c(Cl)c1CN1CC(C(F)(F)F)C1 (single isomer, unassigned) [Example 114b, (4-Chloro-2-methoxy-3-((3-(trifluoromethyl)azetidin-1-yl)methyl)quinolin-6-yl)(2,6-dimethylpyridin-3-yl)(1-methyl-1H-1,2,3-triazol-5-yl)methanol]
IC50 [1, 3]: ~2000 nM

COc1nc2ccc(C(O)(c3ccc(C)nc3C)c3cnnn3C)cc2c(Cl)c1CN1CCC(C(F)(F)F)CC1 (single isomer, unassigned) [Example 103c, (4-Chloro-2-methoxy-3-((4-(trifluoromethyl)piperidin-1-yl)methyl)quinolin-6-yl)(2,6-dimethylpyridin-3-yl)(1-methyl-1H-1,2,3-triazol-5-yl)methanol]
IC50 [1]: 22 nM | Kd ([2]; ThermoFluor Assay, Kd): 1.5 nM

COc1nc2ccc(C(O)(c3ccc(C)nc3C)c3cnnn3C)cc2c(Cl)c1C1CCCC1 (stereo not shown) [Example 136a, (4-Chloro-3-cyclopentyl-2-methoxyquinolin-6-yl)(2,6-dimethylpyridin-3-yl)(1-methyl-1H-1,2,3-triazol-5-yl)methanol]
IC50 [1, 3]: 60 nM | Kd ([2]; read-out: ThermoFluor ® Assay, Kd): 0.95 nM

COc1nc2ccc(C(O)(c3ccc(C)nc3C)c3cnnn3C)cc2c(Cl)c1C (stereo not shown) [Example 12a, (4-Chloro-2-methoxy-3-methylquinolin-6-yl)(2,6-dimethylpyridin-3-yl)(1-methyl-1H-1,2,3-triazol-5-yl)methanol]
IC50 [1, 3]: 1100 nM | Kd [2, 4]: 290 nM

COc1nc2ccc(C(O)(c3ccc(C)nc3C)c3cnnn3C)cc2c(Cl)c1OCC1CC1(F)F (single isomer, unassigned) [Example 72b, {4-Chloro-3-[(2,2-difluorocyclopropyl)methoxy]-2-methoxyquinolin-6-yl}(2,6-dimethylpyridin-3-yl)(1-methyl-1H-1,2,3-triazol-5-yl)methanol]
IC50 [1, 3]: ~6000 nM

COc1nc2ccc(C(O)(c3cnc(C)n3C)C3CN(C(C)=O)C3)cc2c(Cl)c1CN1CCC(C(F)(F)F)CC1 (single isomer, unassigned) [Example 124c, 1-(3-((4-Chloro-2-methoxy-3-((4-(trifluoromethyl)piperidin-1-yl)methyl)quinolin-6-yl)(1,2-dimethyl-1H-imidazol-5-yl)(hydroxy)methyl)azetidin-1-yl)ethanone]
Kd ([2]; ThermoFluor ® Assay, Kd): 4.8 nM

COc1nc2ccc(C(O)(c3ccc(C)nc3C)c3cnnn3C)cc2c(Cl)c1C1CCCC1 (single isomer, unassigned) [Example 136c, (4-Chloro-3-cyclopentyl-2-methoxyquinolin-6-yl)(2,6-dimethylpyridin-3-yl)(1-methyl-1H-1,2,3-triazol-5-yl)methanol]
IC50 [1]: 14 nM | Kd ([2]; ThermoFluor ® Assay, Kd): 1.4 nM

COc1nc2ccc(C(O)(c3ccc(C(F)(F)F)nc3)C3CN(C(C)=O)C3)cc2c(Cl)c1CN1CCC(C(F)(F)F)CC1 (single isomer, unassigned) [Example 131c, 1-(3-((4-Chloro-2-methoxy-3-((4-(trifluoromethyl)piperidin-1-yl)methyl)quinolin-6-yl)(hydroxy)(6-(trifluoromethyl)pyridin-3-yl)methyl)azetidin-1-yl)ethanone]
Kd ([2]; ThermoFluor ® Assay, Kd): 3.3 nM

COc1nc2ccc(C(O)(c3cncn3C)C3CCN(C(C)=O)CC3)cc2c(Cl)c1CC1CCOCC1 (stereo not shown) [Example 5a, 1-(4-((4-Chloro-2-methoxy-3-((tetrahydro-2H-pyran-4-yl)methyl)quinolin-6-yl)(hydroxy)(1-methyl-1H-imidazol-5-yl)methyl)piperidin-1-yl)ethanone]
IC50 [1, 3]: > 6000 nM | Kd [2, 4]: 250 nM

COc1nc2ccc(C(O)(c3cnnn3C)c3cnc(C)n3C)cc2c(Cl)c1CN1CCC(C(F)(F)F)CC1 (single isomer, unassigned) [Example 106b, (4-Chloro-2-methoxy-3-((4-(trifluoromethyl)piperidin-1-yl)methyl)quinolin-6-yl)(1,2-dimethyl-1H-imidazol-5-yl)(1-methyl-1H-1,2,3-triazol-5-yl)methanol]
Kd ([2]; ThermoFluor Assay, Kd): 2.3 nM

COc1nc2ccc(C(O)(c3ccc(C)nc3C)c3cnnn3C)cc2c(Cl)c1CC(C)C (single isomer, unassigned) [Example 133b, (4-Chloro-3-isobutyl-2-methoxyquinolin-6-yl)(2,6-dimethylpyridin-3-yl)(1-methyl-1H-1,2,3-triazol-5-yl)methanol]
IC50 [1]: 840 nM | Kd ([2]; ThermoFluor ® Assay, Kd): 410 nM

COc1nc2ccc(C(O)(c3ccc(C)nc3C)c3cnnn3C)cc2c(Cl)c1CN1CC(C(F)(F)F)C1 (single isomer, unassigned) [Example 114c, (4-Chloro-2-methoxy-3-((3-(trifluoromethyl)azetidin-1-yl)methyl)quinolin-6-yl)(2,6-dimethylpyridin-3-yl)(1-methyl-1H-1,2,3-triazol-5-yl)methanol]
IC50 [1]: 41 nM | Kd ([2]; ThermoFluor Assay, Kd): 3.9 nM

COc1nc2ccc(C(O)(c3ccc(C)nc3C)c3cnnn3C)cc2c(Cl)c1OCC1CC1(F)F (stereo not shown) [Example 72a, {4-Chloro-3-[(2,2-difluorocyclopropyl)methoxy]-2-methoxyquinolin-6-yl}(2,6-dimethylpyridin-3-yl)(1-methyl-1H-1,2,3-triazol-5-yl)methanol]
IC50 [1, 3]: 57 nM | Kd [2, 4]: 41 nM

COc1nc2ccc(C(O)(c3cnnn3C)C3CN(C(C)=O)C3)cc2c(Cl)c1CN1CCC(C(F)(F)F)CC1 (single isomer, unassigned) [Example 123b, 1-(3-((4-Chloro-2-methoxy-3-((4-(trifluoromethyl)piperidin-1-yl)methyl)quinolin-6-yl)(hydroxy)(1-methyl-1H-1,2,3-triazol-5-yl)methyl)azetidin-1-yl)ethanone]
Kd ([2]; ThermoFluor ® Assay, Kd): 18 nM

COc1nc2ccc(C(O)(c3ccc(C)nc3C)c3cnnn3C)cc2c(Cl)c1OCC1CC1(F)F (single isomer, unassigned) [Example 72c, {4-Chloro-3-[(2,2-difluorocyclopropyl)methoxy]-2-methoxyquinolin-6-yl}(2,6-dimethylpyridin-3-yl)(1-methyl-1H-1,2,3-triazol-5-yl)methanol]
IC50 [1]: 33 nM | Kd ([2]; ThermoFluor Assay, Kd): 8.2 nM

COc1nc2ccc(C(O)(c3ccc(C)nc3C)c3cnnn3C)cc2c(Cl)c1OC1CCOCC1 (single isomer, unassigned) [Example 69b, [4-Chloro-2-methoxy-3-(tetrahydro-2H-pyran-4-yloxy)quinolin-6-yl](2,6-dimethylpyridin-3-yl)(1-methyl-1H-1,2,3-triazol-5-yl)methanol]
IC50 [1, 3]: > 6000 nM

COc1nc2ccc(C(O)(c3ccc(C)nc3C)c3cnnn3C)cc2c(Cl)c1CN1CCC(n2cccn2)CC1 (single isomer, unassigned) [Example 105b, (3-((4-(1H-Pyrazol-1-yl)piperidin-1-yl)methyl)-4-chloro-2-methoxyquinolin-6-yl)(2,6-dimethylpyridin-3-yl)(1-methyl-1H-1,2,3-triazol-5-yl)methanol]
IC50 [1, 3]: > 6000 nM

COc1nc2ccc(C(O)(c3cncn3C)C3CCN(C(C)=O)CC3)cc2c(Cl)c1CC1CCOCC1 (single isomer, unassigned) [Example 5b, 1-(4-((4-Chloro-2-methoxy-3-((tetrahydro-2H-pyran-4-yl)methyl)quinolin-6-yl)(hydroxy)(1-methyl-1H-imidazol-5-yl)methyl)piperidin-1-yl)ethanone]
IC50 [1, 3]: > 6000 nM

COc1nc2ccc(C(O)(c3cnnn3C)C3CN(C(C)=O)C3)cc2c(Cl)c1CN1CCC(C(F)(F)F)CC1 (single isomer, unassigned) [Example 123c, 1-(3-((4-Chloro-2-methoxy-3-((4-(trifluoromethyl)piperidin-1-yl)methyl)quinolin-6-yl)(hydroxy)(1-methyl-1H-1,2,3-triazol-5-yl)methyl)azetidin-1-yl)ethanone]
Kd ([2]; ThermoFluor ® Assay, Kd): 19 nM

COc1nc2ccc(C(O)(c3cnc(C)n3C)C3CCOCC3)cc2c(Cl)c1CN1CCC(C(F)(F)F)CC1 (single isomer, unassigned) [Example 130c, (4-Chloro-2-methoxy-3-((4-(trifluoromethyl)piperidin-1-yl)methyl)quinolin-6-yl)(1,2-dimethyl-1H-imidazol-5-yl)(tetrahydro-2H-pyran-4-yl)methanol]
Kd ([2]; ThermoFluor ® Assay, Kd): 0.59 nM

COc1nc2ccc(C(O)(c3ccc(C)nc3C)c3cnnn3C)cc2c(Cl)c1CN1CCC(C(F)(F)F)CC1 (stereo not shown) [Example 103a, (4-Chloro-2-methoxy-3-((4-(trifluoromethyl)piperidin-1-yl)methyl)quinolin-6-yl)(2,6-dimethylpyridin-3-yl)(1-methyl-1H-1,2,3-triazol-5-yl)methanol]
Kd [2, 4]: 1.1 nM

COc1nc2ccc(C(O)(c3ccc(C)nc3C)c3cnnn3C)cc2c(Cl)c1C (single isomer, unassigned) [Example 12b, (4-Chloro-2-methoxy-3-methylquinolin-6-yl)(2,6-dimethylpyridin-3-yl)(1-methyl-1H-1,2,3-triazol-5-yl)methanol]
IC50 [1, 3]: > 6000 nM

COc1nc2ccc(C(O)(c3ccc(C)nc3C)c3cnnn3C)cc2c(Cl)c1OC1CCN(C)CC1 (single isomer, unassigned) [Example 65b, {4-Chloro-2-methoxy-3-[(1-methylpiperidin-4-yl)oxy]quinolin-6-yl}(2,6-dimethylpyridin-3-yl)(1-methyl-1H-1,2,3-triazol-5-yl)methanol]
IC50 [1, 3]: > 6000 nM

COc1nc2ccc(C(O)(c3ccc(C)nc3C)c3cnnn3C)cc2c(Cl)c1CC(C)C (stereo not shown) [Example 133a, (4-Chloro-3-isobutyl-2-methoxyquinolin-6-yl)(2,6-dimethylpyridin-3-yl)(1-methyl-1H-1,2,3-triazol-5-yl)methanol]
IC50 [1, 3]: 11 nM
